From US6916797B2, “α-arylethylpiperazine derivatives as neurokinin antagonists” (UCB, S.A., priority 2000, dated 2005)

System: verapamil binding site of the L-type calcium channel
Assay: Inhibition of [3H]D888 binding to the verapamil binding site of the L-type calcium channel (rat cerebral cortex membranes)
Details: 10 μmol/l of test substance

SMILES | % inhibition of [3H]D888 binding to the verapamil binding site of the L-type calcium channel (tested form: 1 H2O) | % inhibition of [3H]D888 binding to the verapamil binding site of the L-type calcium channel (tested form: 2 maleate)
O=C(O)CN1CCN(C(COCc2cc(C(F)(F)F)cc(C(F)(F)F)c2)c2ccc(Cl)c(Cl)c2)CC1 (single isomer, unassigned) | + (+: inhibition comprised between 20 and 50%) | 
O=C(O)CN1CCN(C(COCc2cc(C(F)(F)F)cc(C(F)(F)F)c2)c2cccc(Cl)c2)CC1 (single isomer, unassigned) |  | + (+: inhibition comprised between 20 and 50%)
